High-throughput results from PubChem.
Hits are enriched below; roughly 2.3% of the tested compounds scored in any of these assays.
NRP1-CendR mod: alters CendR peptide binding to human NRP-1; 360,000 compounds, 0.85% hits; AID 602438; inhibition, % at 25 µM; FAM-RPARPAR peptide binding to NRP-1, fluorescence polarization; O14786;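 active = inhibition or corrected inhibition above about 18%, plus a signal ratio from 0.5 to 1.5, limit read from the data, passing the limit was not always enough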
MC4R ag barr: human MC4R agonism via beta-arrestin | P32245 | U2OS MC4R beta-arrestin complementation, luminescence; percent of melanotan II response, DMSO zero | activation, % at 8.9 µM | 360,000 compounds, 0.98% hits;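 active = activation above a per-plate cutoff, the mean activation of sample wells on that plate plus 3 SD, cut at about 8% in these data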
UUG fidelity: alters start codon recognition fidelity in yeast | S. cerevisiae UUG-firefly luciferase reporter, luminescence/redox ratio | activity score, % at 18.7 µM | 350,000 compounds, 0.13% hits | AID 602363;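 active = replicate mean at a twofold rise or more, about +100% in these data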;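 note: firefly luciferase made from a UUG start codon reports start codon fidelity; reporter light over untreated wells divided by growth signal over untreated wells; some hits fall short of that in this replicate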
ARFGAP1 inhibitor: inhibitors of rat ARFGAP1; Q62848; Arfgap1-stimulated ARF1 GTP hydrolysis, GDP FP detection; inhibition, % at 16.5 µM; 360,000 compounds, 0.26% hits; AID 651572;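 active = inhibition above a per-plate limit, mean inhibition of low control wells plus 3 SD, cut at about 25% in these data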;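 also: 0% = DMSO wells with enzyme and 100% = wells lacking Arfgap1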
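System: truncated rat Arfgap1 GAP domain / Benchmarks: high control wells lacking Arfgap1, low control full reaction with DMSO / Times: compound-enzyme preincubation 20 min, reaction 120 min, detection 60 min, 25 °C / Repeats: one replicate per compound / Also added: human ARF1(Δ1-17)-GTP substrate / Measured by: Tracer-displacement fluorescence polarization with EDTA stop, 620/688 nm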
ASAP1 GAP inh: ASAP1 ArfGAP inhibition | 360,000 compounds, 0.19% hits | Q9ULH1 | ASAP1-stimulated ARF1 GTP hydrolysis, GDP FP detection | inhibition, % at 16.5 µM; in the data active = inhibition above about 25%;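 also: 0% = vehicle with enzyme and substrate and 100% = no enzyme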
MC4R antag cAMP: antagonists of human melanocortin 4 receptor (MC4R); P32245; MC4R-expressing cells, MTII-stimulated cAMP, LANCE TR-FRET; inhibition, % at 6.5 µM; 360,000 compounds, 0.48% hits;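 active = inhibition above its plate's cutoff, the mean of tested wells on that plate plus 3 SD, cut at about 29% in these data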;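 also: 0% = Melanotan II alone and 100% = Melanotan II plus saturating MCL0020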
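system = U2OS cells with stable human MC4R expression | also added = Melanotan II challenge after compound preincubation | dosing = one concentration, 6.5 µM nominal | incubation = compound 30 min, challenge 1 h, detection 1 h | measured by = TR-FRET with Eu-cAMP and labeled anti-cAMP, 671 nm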
U2OS cAMP counter: counter-screen for MC4R antagonists: nonselective cAMP signaling inhibitors | 1,600 compounds, 26% hits | parental U2OS, forskolin cAMP, LANCE TR-FRET | shares compounds with MC4R antag cAMP | inhibition, % at 6.5 µM;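 active = mean inhibition over triplicates above the low-control well mean plus 3 SD, set per campaign, cut at about 13% in these data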;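 also: signal is single emission at 671 nm which falls as cellular cAMP rises; 0% = forskolin-stimulated wells and 100% = buffer without forskolin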
MC4R cAMP antag: human MC4R cAMP antagonism confirmation; shares compounds with MC4R antag cAMP; MC4R-expressing cells, MTII-stimulated cAMP, TR-FRET; inhibition, % at 6.5 µM; 1,600 compounds, 27% hits; AID 602195; in the data active = inhibition above about 29%;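 also: 0% = agonist stimulated wells alone and 100% = agonist stimulated wells plus saturating reference antagonist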
An asterisk follows results filed as active; · = no result.

The line under a structure holds: NRP1-CendR mod, MC4R ag barr, UUG fidelity, ARFGAP1 inhibitor, ASAP1 GAP inh, MC4R antag cAMP, U2OS cAMP counter, MC4R cAMP antag
Cc1csc(CN(C)C(=O)CC2C(=O)NCCN2Cc2ccc(Cl)c(F)c2)n1 (centres undefined)
    8.9, -1.9, -15.6, -12.4, 11.5, 3.8, ·, ·
Cc1csc(CN(C)C(=O)CC2C(=O)NCCN2Cc2ccc(-c3ccccc3)cc2)n1 (centres undefined)
    5.5, 1.4, ·, 11.4, 6.2, 28.9*, -1.7, 3.5
C[C@H](CO)N1C[C@H](C)[C@@H](CN(C)Cc2ccc(C(F)(F)F)cc2)Oc2ccc(NC(=O)CCCN(C)C)cc2C1=O
    ·, ·, -11.9, ·, ·, ·, ·, ·
Cc1ccc(C(=O)NNc2c3ccccc3nc3ccccc23)cc1
    -11.3, -1.9, 0.6, 1.3, 7.9, -13.3, ·, ·
O=C(NNc1c2ccccc2nc2ccccc12)c1ccc(Cl)cc1
    6.6, -0.9, -3.4, 9.7, 3.6, 33.0*, -1.9, -23.8
CC(C)NC(=O)N1[C@@H]2CN(C(=O)Nc3ccccc3)c3ccccc3[C@@H]2[C@@H]1CO
    ·, ·, -9.2, ·, ·, ·, ·, ·
CC(C)(C)OC(=O)NCCc1nnc(SCc2ccccc2Cl)o1
    16.7, 1.5, 2.8, 0.6, -2.4, -8.8, ·, ·
CC(C)(C)OC(=O)NCCc1nnc(S(=O)(=O)Cc2ccc(Cl)cc2Cl)o1
    0.0, -1.5, -0.2, -15.9, 2.8, 31.0*, 4.0, 37.8*
COC(=O)C=C1CCC2C3CCC4=CC(=O)C(Br)CC4(C)C3C(=O)CC12C (centres undefined)
    3.0, -1.0, -11.8, 15.3, 8.7, 30.8*, 2.5, 21.9
CNC(=O)C1=C[C@@H](c2ccc(OC)cc2)C[C@@H](OCCCCO)O1
    ·, ·, -2.5, ·, ·, ·, ·, ·
CC(C)(C)c1ccc(OCCSc2nc3ccccc3n2CC(=O)O)cc1
    9.4, -0.6, -28.3, -13.4, 0.1, 33.8*, -2.2, -3.8
CCn1c(C(=O)O)c(CC(=O)Nc2ccc(Br)cc2C)c2ccccc21
    -2.0, 2.4, -11.5, 5.1, 0.3, 29.4*, 1.9, -7.0
CCN(CC)CCNC(=O)Cc1c(C(=O)O)n(CC)c2ccccc12
    5.0, -1.4, -20.3, 7.1, 10.2, 8.6, ·, ·
CCC(=O)N1C[C@@H]2[C@H](c3ccccc31)[C@H](CO)N2Cc1ccccc1F
    ·, ·, -0.1, ·, ·, ·, ·, ·
CCN(CC)c1ccc(C2Nc3cccc4cccc(c34)N2)c(O)c1
    -6.0, 0.5, -2.5, 10.6, 13.9, 32.6*, 3.2, 29.1*
Oc1ccc2ccccc2c1C1Nc2cccc3cccc(c23)N1
    -1.7, 0.1, ·, ·, ·, 9.9, ·, ·
O=C(C[C@@H]1C=C[C@H](NC(=O)NC2CCCCC2)[C@@H](CO)O1)NCc1ccccc1
    ·, ·, -6.7, ·, ·, ·, ·, ·
COc1ccccc1NC(=S)N1CCC(NC(=O)NC23CC4CC(CC(C4)C2)C3)CC1
    -0.9, -0.1, -23.8, 5.1, 3.0, 34.3*, 0.0, -11.7
COC(=O)C[C@@H]1C[C@H]2c3cc(NC(=O)C4CCC4)ccc3O[C@H]2[C@H](CO)O1
    ·, ·, -12.5, ·, ·, ·, ·, ·
CC(=O)c1ccc(NC(=O)c2ccccc2Sc2ncnc3sc(C)c(C)c23)cc1
    -1.3, -2.7, 4.2, 0.9, 10.0, 3.0, ·, ·
Cc1sc2ncnc(Sc3ccccc3C(=O)O)c2c1C
    11.7, -0.3, ·, 4.4, -9.8, 96.8*, 49.5*, 86.8*
O=C(NCC[C@H]1CC[C@H](NS(=O)(=O)c2cccc(F)c2)[C@@H](CO)O1)Nc1cc(F)ccc1F
    ·, ·, -5.1, ·, ·, ·, ·, ·
C[C@H]1CN([C@@H](C)CO)C(=O)Cc2cc(NS(=O)(=O)c3ccccc3)ccc2O[C@H]1CN(C)S(C)(=O)=O
    ·, ·, -6.0, ·, ·, ·, ·, ·
CC(C)(C)C1CCc2c(sc(NC(=O)C3CC=CCC3C(=O)O)c2C#N)C1 (centres undefined)
    -20.0, -0.9, -6.3, -9.5, -0.9, 28.8*, 3.8, 11.1
N#Cc1c(NC(=O)C2CC=CCC2C(=O)O)sc2c1CCCCCC2 (centres undefined)
    -0.8, 0.4, -4.3, 3.8, 1.1, 2.7, ·, ·
O=C(N[C@H]1CC[C@H](CCn2cc(Cc3ccccc3)nn2)O[C@@H]1CO)c1cnccn1
    ·, ·, -26.3, ·, ·, ·, ·, ·
COc1cc(/C=C(\C#N)C(=O)Nc2cccc3ncccc23)cc(OC)c1OC
    -25.7, -0.4, ·, 4.9, 5.8, 6.0, ·, ·
COc1ccc(/C=C(\C#N)C(=O)Nc2cccc3ncccc23)cc1OC
    -0.4, -0.7, ·, 0.8, -0.2, 30.7*, -2.5, 3.2
Cc1ccc(-n2c(SCC(=O)O)nc3sc4c(c3c2=O)CCCC4)cc1
    -3.6, 2.2, -15.5, -16.8, -1.8, 9.3, ·, ·
Cc1ccc(-c2c(CC(=O)O)c(C)nc3sc4c(c23)CCCC4)cc1
    3.5, -1.0, -4.2, -11.7, -7.5, 29.4*, 2.1, -1.4

Part of the list above in order of heavy-atom count, smallest number first.
The line under a structure holds: NRP1-CendR mod, MC4R ag barr, UUG fidelity, ARFGAP1 inhibitor, ASAP1 GAP inh, MC4R antag cAMP, U2OS cAMP counter, MC4R cAMP antag
Oc1ccc2ccccc2c1C1Nc2cccc3cccc(c23)N1
    -1.7, 0.1, ·, ·, ·, 9.9, ·, ·
CCC(=O)N1C[C@@H]2[C@H](c3ccccc31)[C@H](CO)N2Cc1ccccc1F
    ·, ·, -0.1, ·, ·, ·, ·, ·
CC(C)(C)c1ccc(OCCSc2nc3ccccc3n2CC(=O)O)cc1
    9.4, -0.6, -28.3, -13.4, 0.1, 33.8*, -2.2, -3.8
CC(C)NC(=O)N1[C@@H]2CN(C(=O)Nc3ccccc3)c3ccccc3[C@@H]2[C@@H]1CO
    ·, ·, -9.2, ·, ·, ·, ·, ·
Cc1csc(CN(C)C(=O)CC2C(=O)NCCN2Cc2ccc(-c3ccccc3)cc2)n1 (centres undefined)
    5.5, 1.4, ·, 11.4, 6.2, 28.9*, -1.7, 3.5

Following part
The line under a structure holds: NRP1-CendR mod, MC4R ag barr, UUG fidelity, ARFGAP1 inhibitor, ASAP1 GAP inh, MC4R antag cAMP, U2OS cAMP counter, MC4R cAMP antag
CCOC(=O)c1cc2cc(OCc3ccccc3)ccc2nc1C
    1.7, -0.6, -6.8, -2.2, -9.9, 17.1, ·, ·
CCOC(=O)c1cnc2ccc(OCC)cc2c1N(C)Cc1ccccc1
    -13.1, 2.6, -2.2, -7.5, -7.3, 30.0*, 0.1, 31.4*
COc1ccc(C(=O)/C(=C\c2ccco2)N2C=CC=CC2=C(C#N)C#N)cc1
    0.8, -2.4, -17.0, ·, ·, 32.8*, 12.2, 35.5*
N#CC(C#N)=C1C=CC=CN1/C(=C\c1ccco1)C(=O)c1ccc(Br)cc1
    -0.3, -3.8, ·, -0.6, -1.7, 27.8, ·, ·
N#CC(C#N)=C1C=CC=CN1/C(=C\c1ccco1)C(=O)c1ccccc1
    -6.7, -2.9, ·, 4.5, -2.7, 37.9*, 13.7*, 25.5
CCN1CCN(C(c2cccs2)C(C)NS(=O)(=O)c2ccc(C)cc2)CC1 (centres undefined)
    -14.4, -1.7, ·, 0.1, -6.0, 29.9*, 0.8, -7.7
O=C(C[C@@H]1CC[C@@H]2[C@H](COC[C@H](O)CN2S(=O)(=O)c2ccccc2Cl)O1)NCc1ccccc1Cl
    ·, ·, 7.4, ·, ·, ·, ·, ·
CCOc1ccccc1OCC(=O)Oc1ccc(C)c(C)c1
    4.1, 2.6, -26.3, 14.4, 2.0, 28.6*, 3.5, 3.5
CC(=O)Nc1nnc(SCc2ccc(F)cc2)s1
    5.9, -0.3, 2.7, 7.0, 8.9, 14.9, ·, ·
O=C(Nc1nnc(SCc2ccc(F)cc2)s1)c1cnccn1
    -3.0, -0.1, ·, 9.0, 10.8, 31.9*, -4.1, -10.8
CC(C)NC(=O)N(C)C[C@@H]1Oc2ccc(NC(=O)c3ccncc3)cc2C(=O)N([C@@H](C)CO)C[C@H]1C
    ·, ·, -16.6, ·, ·, ·, ·, ·
O=C(COC(=O)CNC(=O)c1cccc([N+](=O)[O-])c1)Nc1nc2ccccc2s1
    -5.4, -1.5, 4.7, 0.0, 8.1, 31.1*, 7.2, 12.7
